Reference: patent USRE42013E1
pKi: −log10 of the molar value.

Chains of the proteins cited; added tags and fusions are not shown.
UniProt Q92847, whole entry: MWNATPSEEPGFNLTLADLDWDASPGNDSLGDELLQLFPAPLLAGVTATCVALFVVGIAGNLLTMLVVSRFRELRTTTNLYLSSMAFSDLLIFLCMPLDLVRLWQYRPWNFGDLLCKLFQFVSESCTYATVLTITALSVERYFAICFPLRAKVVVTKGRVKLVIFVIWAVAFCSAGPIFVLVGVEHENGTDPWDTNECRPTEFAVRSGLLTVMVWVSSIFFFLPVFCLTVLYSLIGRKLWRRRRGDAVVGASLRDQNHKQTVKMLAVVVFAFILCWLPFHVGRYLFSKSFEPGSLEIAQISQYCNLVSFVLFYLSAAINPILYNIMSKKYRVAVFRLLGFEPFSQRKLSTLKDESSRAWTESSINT
UniProt O43193, whole entry: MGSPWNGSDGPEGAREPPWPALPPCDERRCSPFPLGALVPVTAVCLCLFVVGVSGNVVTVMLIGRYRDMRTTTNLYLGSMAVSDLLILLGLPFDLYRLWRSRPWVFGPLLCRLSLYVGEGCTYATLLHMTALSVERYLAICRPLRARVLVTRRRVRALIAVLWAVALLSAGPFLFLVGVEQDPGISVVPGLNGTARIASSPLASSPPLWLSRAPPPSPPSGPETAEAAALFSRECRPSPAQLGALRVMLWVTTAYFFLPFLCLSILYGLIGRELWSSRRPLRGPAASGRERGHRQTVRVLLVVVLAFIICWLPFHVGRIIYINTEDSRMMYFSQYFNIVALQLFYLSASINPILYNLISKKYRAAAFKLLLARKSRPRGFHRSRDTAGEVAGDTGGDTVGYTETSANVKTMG

What was measured:
[1] = target: human growth hormone secretagogue receptor (hGHS-R1a) (Homo sapiens, UniProt Q92847); assay: Competitive radioligand binding assay (ghrelin receptor), [125I]-ghrelin displacement; conditions: for pKi: Table 3B, binding at human ghrelin receptor, [125I]-ghrelin displacement; for binding potency of linear (non-cyclized) analogues: linear analogues of compounds 10 and 133
motilin receptor = motilin receptor (Homo sapiens, UniProt O43193); assay: Selectivity versus the motilin receptor
[2] = test system: gastric emptying in fasted rats; assay: Gastric emptying in fasted rats (phenol red methylcellulose meal); format: in vivo, rat (Wistar)
[3] = test system: rats with post-operative ileus; format: in vivo, rat (Sprague-Dawley)
[4] = test system: pulsatile GH release in rat; assay: Growth hormone response to test compounds in conscious, freely-moving rats
morphine-treated rats = assay: Gastric emptying and gastrointestinal transit in model of opioid-delayed gastric emptying; conditions: i.v., 30 min after morphine 3 mg/kg s.c.
[5] = Metabolic stability in human plasma; conditions: 37° C., free amine or HCl salt, with or without PBS
[6] = test system: human cytochrome P450 enzymes; assay: Interaction profile at human cytochrome P450 enzyme subtypes (other than cyp3A4); conditions: 0.0457 to 100 μM

| Structure (SMILES) | pKi [1] | further results |
| --- | --- | --- |
| CC[C@H](C)[C@@H]1NCCOc2ccccc2/C=C/CNC(=O)[C@H](Cc2cc(F)cc(F)c2)NC(=O)C2(CCCC2)NC1=O | > 7.00 |  |
| C[C@@H]1C(=O)N[C@H](Cc2ccc(F)cc2)C(=O)NCCCc2ccccc2O[C@@H](C)CN[C@@H](C2CC2)C(=O)N1C | > 7.00 |  |
| CCC(C)C1NCCOc2ccccc2/C=C/CNC(=O)C(COCc2ccccc2)NC(=O)C(C)(C)NC1=O (stereo not shown) | 5.00 to 7.00 |  |
| CC[C@H](C)[C@@H]1NCCCCCCCCNC(=O)[C@@H](Cc2ccccc2)NC(=O)[C@@H](C)N(C)C1=O |  | Selectivity (motilin receptor): 28/1 |
| CC1C(=O)NC(Cc2ccc(F)cc2)C(=O)NCC2CC2c2ccccc2OCCNC(C2CC2)C(=O)N1C (stereo not shown) [compound 379] | > 7.00 |  |
| CCC(C)C1NCCCc2ccccc2C=CCNC(=O)C(Cc2ccc(F)cc2)NC(=O)C(C)N(C)C1=O (stereo not shown) | > 7.00 |  |
| CC[C@H](C)[C@@H]1NCCCc2ccccc2C=CCNC(=O)[C@@H](Cc2ccccc2)NC(=O)[C@@H](C)N(C)C1=O |  | Selectivity (motilin receptor): >800/1 |
| CC(C)[C@@H]1NCCOc2ccccc2/C=C/CNC(=O)[C@H](Cc2ccccc2)NC(=O)C2(CCOC2)NC1=O (single isomer, unassigned) | > 7.00 |  |
| CCC(C)C1NCCOc2ccccc2/C=C/CNC(=O)C(Cc2cccc(Cl)c2)NC(=O)C2(CCCC2)NC1=O (stereo not shown) | > 7.00 |  |
| CC[C@H](C)[C@@H]1NCCOc2ccccc2/C=C/CNC(=O)[C@H](Cc2cccc(C(F)(F)F)c2)NC(=O)C2(CCCC2)NC1=O | > 7.00 |  |
| CCC(C)C1NCC(C)Oc2ccccc2CCCNC(=O)C(Cc2cccc(Cl)c2)NC(=O)C2(CCCC2)NC1=O (stereo not shown) | > 7.00 |  |
| CC[C@H](C)[C@@H]1NCCOc2ccccc2/C=C/CNC(=O)[C@H](COCc2ccccc2)NC(=O)C(C)(C)NC1=O | 5.00 to 7.00 |  |
| CC(=O)N(CCOc1ccccc1CCCN)[C@@H](CC(C)C)C(=O)NC1(C(=O)N[C@@H](Cc2ccccc2)C(N)=O)CCCC1 |  | binding potency of linear (non-cyclized) analogues [1]: lack of binding potency |
| CC[C@H](C)[C@@H]1NCCOc2ccccc2CCCNC(=O)[C@H](Cc2cccc(Cl)c2)NC(=O)C2(CCNC2)NC1=O (stereo partly shown) | > 7.00 |  |
| CC[C@H](C)[C@@H]1NCCCc2ccccc2/C=C/CNC(=O)[C@H](Cc2cccc(Cl)c2)NC(=O)C2(CCCC2)NC1=O | > 7.00 |  |
| CCC[C@@H](C(=O)N(C)CC(=O)N[C@H](Cc1ccccc1)C(N)=O)N(CCOc1ccccc1CCCN)C(C)=O |  | binding potency of linear (non-cyclized) analogues [1]: lack of binding potency |
| CC[C@H](C)[C@@H]1NCCOc2ccccc2/C=C/CNC(=O)[C@H](Cc2ccc(F)c(F)c2)NC(=O)C2(CCCC2)NC1=O | > 7.00 |  |
| C[C@@H]1CN[C@@H](C2CC2)C(=O)N(C)[C@H](C)C(=O)N[C@H](Cc2ccc(F)cc2)C(=O)NCCCc2ccccc2O1 |  | gastric emptying of a solid meal in naïve rat ([2]; i.v. immediately after meal, 15 min): significant gastric emptying in a dose-dependent manner; potency superior to metoclopramide in gastric emptying ([2]; naïve rats, i.v.): 100 fold; effect on postoperative ileus in comparison to POI+vehicle treated rats ([3]; 100 μg/kg i.v., n=5): significantly improves postoperative ileus; gastric emptying and intestinal transit in POI rats ([3]; 100 and 300 μg/kg i.v.): significantly increased gastric emptying and intestinal transit; IGF-1 levels ([4]; 1000 μg/kg dose): No changes in IGF-1 levels; effect on GH release ([4]; FIG. 9): lack of effect on GH release; effect on ghrelin-induced GH release ([4]; dosed 10 min prior to ghrelin): neither inhibits nor augments ghrelin-induced GH release; pulsatile GH release in comparison to vehicle controls ([4]; doses up to 1000 μg/kg i.v.): no significant difference in pulsatile GH release; opioid-delayed gastrointestinal transit (morphine-treated rats): effectively reversed in a dose-dependent manner; stable in human plasma for [5]: at least 24 hours; inhibitory activity at cyp450 enzymes tested, except cyp3A4 [6]: minimal inhibitory activity |
| CCC(C)[C@@H]1NC[C@@H](C)Oc2ccccc2CCCNC(=O)[C@H](Cc2cccc(Cl)c2)NC(=O)C2(CCCC2)NC1=O (stereo partly shown) | > 7.00 |  |
| CC[C@H](C)[C@@H]1NCCOc2ccccc2/C=C/CNC(=O)[C@H](Cc2cccc(Cl)c2)NC(=O)C2(CCCC2)NC1=O | > 7.00 |  |
| CC[C@H](C)[C@@H]1NCCCc2ccccc2/C=C/CNC(=O)[C@@H](Cc2ccc(F)cc2)NC(=O)[C@@H](C)N(C)C1=O | > 7.00 |  |
